Source: PMC10541198, “Specific quinone reductase 2 inhibitors reduce metabolic burden and reverse Alzheimer’s disease phenotype in mice” (The Journal of Clinical Investigation, 2023)

Amino acid sequences for entries named in this document (tags omitted).
UniProt P16083, whole entry: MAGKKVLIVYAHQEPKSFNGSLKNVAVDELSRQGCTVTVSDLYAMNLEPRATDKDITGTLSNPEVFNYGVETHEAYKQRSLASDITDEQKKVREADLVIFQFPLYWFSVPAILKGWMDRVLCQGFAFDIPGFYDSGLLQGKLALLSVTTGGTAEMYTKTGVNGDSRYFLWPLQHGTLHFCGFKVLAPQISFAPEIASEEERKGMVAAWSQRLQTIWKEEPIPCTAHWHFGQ
UniProt P15559, whole entry: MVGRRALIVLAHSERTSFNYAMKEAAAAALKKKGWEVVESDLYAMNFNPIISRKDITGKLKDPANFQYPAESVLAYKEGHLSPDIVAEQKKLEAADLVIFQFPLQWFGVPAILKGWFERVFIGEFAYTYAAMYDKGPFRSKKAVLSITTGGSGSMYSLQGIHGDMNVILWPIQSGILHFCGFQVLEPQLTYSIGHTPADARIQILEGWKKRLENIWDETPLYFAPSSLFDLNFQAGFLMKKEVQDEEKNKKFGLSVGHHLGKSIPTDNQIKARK

Experiments:
QR2 [1] = target: T1, QR2 (Homo sapiens, UniProt P16083); assay: QR2 activity assay, BNAH fluorescence (standard/primary); conditions: read-out: QR2 IC50 Fluorescence; Supplementary Table 1
QR2 [2] = target: T1, QR2; assay: QR2 orthogonal assay, BNAH absorbance at 350 nm; conditions: read-out: QR2 IC50 Absorbance; Supplementary Table 1
QR1 [3] = target: T2, QR1 (Homo sapiens, UniProt P15559); assay: QR1 selectivity assay, fluorescence; conditions: read-out: QR1 IC50 Fluorescence; Supplementary Table 1
QR1 [4] = target: T2, QR1; assay: QR1 selectivity assay, absorbance; conditions: read-out: QR1 IC50 Absorbance; Supplementary Table 1
THLE-2 cells = assay: ATP depletion cell toxicity assay (CellTiter Glo), 72 h; conditions: read-out: THLE2 IC50, 72 h exposure

In the case of Cc1cnc2c(S(=O)(=O)N(C)C(C)c3ccc(S(C)(=O)=O)cc3)cccc2c1 (stereo not drawn), the IC50 (QR2 [1]) is reported as 1.22 µM, the IC50 (QR2 [2]) is reported as 0.87 µM and the IC50 (QR1 [3]) is reported as > 9.9 µM. For the same compound, the IC50 (QR1 [4]) was > 9.99 µM and the IC50 (THLE-2 cells) was 31.7 µM.
Cn1cc(C2=CCN(S(=O)(=O)c3cccc4cccnc34)CC2)c2cccnc21 was tested, and the IC50 (QR2 [1]) was > 9.9 µM, the IC50 (QR2 [2]) was 7.15 µM and the IC50 (QR1 [3]) was 7.98 µM. It also gave an IC50 (QR1 [4]) of 5.98 µM.
